Tests used:
Format in all cases: biochemical
wild type ROS1 = wild type ROS1 (Homo sapiens, UniProt P08922); assay: Inhibition of wild type ROS1 kinase, CisBio HTRF KinEASE-TK assay; conditions: read-out: ROS1 wT IC50
Method: (§1) The potency of a compound inhibiting wild type and exemplary mutant ROS1 kinases was determined using CisBio's HTRF Kinease-TK assay technology. […] No. […] No. […] Each kinase is incubated with 250 nM TK-substrate biotin (CisBio, Cat. No. 62TKOPEC) and 1 mM ATP along with test compound in a buffer consisting of 25 mM MOPS [pH 7.4], 5 mM MgCl2, 0.005% Triton X-100, and 2% DMSO in a volume of 8 μL. […] After a 1 hour incubation at 22° C., the extent of reaction was determined using a PerkinElmer EnVision multimode plate reader via HTRF dual wavelength detection, and the percent of control (POC) was calculated using a ratiometric emission factor. 100 POC is determined using no test compound and 0 POC is determined in the absence of enzyme.

By UniProt entry, the sequences of proteins in these tests, tags left out. Residues count along the entry.
UniProt P08922, 1883-2347 limits assumed: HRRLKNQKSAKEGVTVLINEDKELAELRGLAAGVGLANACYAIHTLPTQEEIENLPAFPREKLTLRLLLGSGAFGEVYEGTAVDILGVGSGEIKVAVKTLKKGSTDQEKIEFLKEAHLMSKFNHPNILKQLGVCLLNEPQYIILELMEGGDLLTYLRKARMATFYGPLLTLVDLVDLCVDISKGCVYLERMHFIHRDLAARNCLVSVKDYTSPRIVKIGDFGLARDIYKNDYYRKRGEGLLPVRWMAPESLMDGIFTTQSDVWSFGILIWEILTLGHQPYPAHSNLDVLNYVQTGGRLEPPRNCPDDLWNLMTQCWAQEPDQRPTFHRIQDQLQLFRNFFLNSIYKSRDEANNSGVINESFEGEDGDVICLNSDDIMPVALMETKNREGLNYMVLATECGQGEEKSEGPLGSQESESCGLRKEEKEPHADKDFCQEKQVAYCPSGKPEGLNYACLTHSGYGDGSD
UniProt P08922, 1883-2347 G2032R limits assumed: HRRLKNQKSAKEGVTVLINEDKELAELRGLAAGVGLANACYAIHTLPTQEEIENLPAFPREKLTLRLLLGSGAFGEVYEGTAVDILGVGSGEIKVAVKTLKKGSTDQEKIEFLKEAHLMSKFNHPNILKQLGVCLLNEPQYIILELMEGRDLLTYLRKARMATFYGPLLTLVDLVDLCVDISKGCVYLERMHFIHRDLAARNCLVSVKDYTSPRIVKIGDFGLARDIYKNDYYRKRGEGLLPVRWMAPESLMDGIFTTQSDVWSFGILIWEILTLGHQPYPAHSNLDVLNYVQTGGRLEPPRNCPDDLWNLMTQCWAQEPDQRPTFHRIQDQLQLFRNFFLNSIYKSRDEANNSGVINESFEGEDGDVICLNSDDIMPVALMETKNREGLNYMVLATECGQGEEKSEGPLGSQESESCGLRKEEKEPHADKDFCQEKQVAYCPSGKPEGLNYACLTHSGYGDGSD
UniProt P08922, 28-2347 L2026M: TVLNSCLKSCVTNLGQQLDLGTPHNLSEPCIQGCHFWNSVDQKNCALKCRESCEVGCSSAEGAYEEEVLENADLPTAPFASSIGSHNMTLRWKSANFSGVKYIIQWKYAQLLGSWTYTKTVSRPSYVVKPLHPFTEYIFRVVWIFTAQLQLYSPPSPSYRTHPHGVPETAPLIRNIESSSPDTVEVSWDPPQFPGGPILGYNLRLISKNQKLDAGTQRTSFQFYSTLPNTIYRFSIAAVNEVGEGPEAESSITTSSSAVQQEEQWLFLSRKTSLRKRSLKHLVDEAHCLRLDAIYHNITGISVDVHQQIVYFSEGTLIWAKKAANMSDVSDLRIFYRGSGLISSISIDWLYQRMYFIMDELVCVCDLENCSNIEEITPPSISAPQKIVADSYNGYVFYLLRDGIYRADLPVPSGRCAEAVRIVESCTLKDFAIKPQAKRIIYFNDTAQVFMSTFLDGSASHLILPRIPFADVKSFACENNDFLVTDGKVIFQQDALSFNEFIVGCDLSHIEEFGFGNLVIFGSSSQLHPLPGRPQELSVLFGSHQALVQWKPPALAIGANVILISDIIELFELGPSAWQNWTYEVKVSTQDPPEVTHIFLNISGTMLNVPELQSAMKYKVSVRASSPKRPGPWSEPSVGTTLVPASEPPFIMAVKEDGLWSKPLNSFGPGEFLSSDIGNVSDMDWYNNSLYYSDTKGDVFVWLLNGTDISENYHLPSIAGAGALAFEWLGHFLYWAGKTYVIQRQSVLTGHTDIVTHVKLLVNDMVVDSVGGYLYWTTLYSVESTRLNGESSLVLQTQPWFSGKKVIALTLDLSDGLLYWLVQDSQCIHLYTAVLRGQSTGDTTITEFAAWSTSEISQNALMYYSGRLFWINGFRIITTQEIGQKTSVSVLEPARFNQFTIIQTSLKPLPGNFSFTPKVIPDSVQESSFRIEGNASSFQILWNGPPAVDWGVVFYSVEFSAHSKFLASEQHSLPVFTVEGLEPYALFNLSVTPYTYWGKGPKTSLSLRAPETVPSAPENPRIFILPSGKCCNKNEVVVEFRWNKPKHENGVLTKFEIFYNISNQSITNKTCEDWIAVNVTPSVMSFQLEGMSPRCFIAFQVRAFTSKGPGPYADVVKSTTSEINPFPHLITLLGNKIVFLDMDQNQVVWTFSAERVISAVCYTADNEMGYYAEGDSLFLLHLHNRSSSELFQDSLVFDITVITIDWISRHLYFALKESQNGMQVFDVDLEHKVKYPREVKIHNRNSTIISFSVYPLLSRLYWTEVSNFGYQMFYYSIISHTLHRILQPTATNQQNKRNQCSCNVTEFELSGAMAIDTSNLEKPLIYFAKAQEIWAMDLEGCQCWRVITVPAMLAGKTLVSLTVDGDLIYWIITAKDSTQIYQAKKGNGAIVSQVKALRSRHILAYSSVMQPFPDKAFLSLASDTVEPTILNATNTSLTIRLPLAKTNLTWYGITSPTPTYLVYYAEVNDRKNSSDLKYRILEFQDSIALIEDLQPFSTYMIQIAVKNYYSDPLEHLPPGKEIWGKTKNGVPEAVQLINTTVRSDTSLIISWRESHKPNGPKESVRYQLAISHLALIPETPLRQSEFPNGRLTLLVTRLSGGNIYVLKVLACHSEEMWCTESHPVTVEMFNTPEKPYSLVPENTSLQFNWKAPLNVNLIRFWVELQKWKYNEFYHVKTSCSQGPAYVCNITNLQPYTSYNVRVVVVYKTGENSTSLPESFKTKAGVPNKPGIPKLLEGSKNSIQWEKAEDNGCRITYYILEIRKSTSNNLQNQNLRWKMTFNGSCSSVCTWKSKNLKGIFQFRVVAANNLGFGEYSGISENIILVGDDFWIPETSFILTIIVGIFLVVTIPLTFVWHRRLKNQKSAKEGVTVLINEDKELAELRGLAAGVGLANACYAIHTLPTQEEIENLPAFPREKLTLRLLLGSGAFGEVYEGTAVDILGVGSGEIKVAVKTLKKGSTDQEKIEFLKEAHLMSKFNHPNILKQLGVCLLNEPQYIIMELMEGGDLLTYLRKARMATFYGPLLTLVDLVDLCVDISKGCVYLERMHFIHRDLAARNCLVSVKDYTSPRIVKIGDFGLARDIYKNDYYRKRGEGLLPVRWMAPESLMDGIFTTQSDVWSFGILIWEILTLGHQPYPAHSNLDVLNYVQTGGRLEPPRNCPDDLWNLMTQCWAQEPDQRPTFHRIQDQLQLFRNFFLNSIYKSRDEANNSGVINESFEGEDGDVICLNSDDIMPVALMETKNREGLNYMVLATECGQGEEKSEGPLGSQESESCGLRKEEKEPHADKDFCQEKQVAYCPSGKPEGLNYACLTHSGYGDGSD
UniProt P08922, 28-2347 D2033N: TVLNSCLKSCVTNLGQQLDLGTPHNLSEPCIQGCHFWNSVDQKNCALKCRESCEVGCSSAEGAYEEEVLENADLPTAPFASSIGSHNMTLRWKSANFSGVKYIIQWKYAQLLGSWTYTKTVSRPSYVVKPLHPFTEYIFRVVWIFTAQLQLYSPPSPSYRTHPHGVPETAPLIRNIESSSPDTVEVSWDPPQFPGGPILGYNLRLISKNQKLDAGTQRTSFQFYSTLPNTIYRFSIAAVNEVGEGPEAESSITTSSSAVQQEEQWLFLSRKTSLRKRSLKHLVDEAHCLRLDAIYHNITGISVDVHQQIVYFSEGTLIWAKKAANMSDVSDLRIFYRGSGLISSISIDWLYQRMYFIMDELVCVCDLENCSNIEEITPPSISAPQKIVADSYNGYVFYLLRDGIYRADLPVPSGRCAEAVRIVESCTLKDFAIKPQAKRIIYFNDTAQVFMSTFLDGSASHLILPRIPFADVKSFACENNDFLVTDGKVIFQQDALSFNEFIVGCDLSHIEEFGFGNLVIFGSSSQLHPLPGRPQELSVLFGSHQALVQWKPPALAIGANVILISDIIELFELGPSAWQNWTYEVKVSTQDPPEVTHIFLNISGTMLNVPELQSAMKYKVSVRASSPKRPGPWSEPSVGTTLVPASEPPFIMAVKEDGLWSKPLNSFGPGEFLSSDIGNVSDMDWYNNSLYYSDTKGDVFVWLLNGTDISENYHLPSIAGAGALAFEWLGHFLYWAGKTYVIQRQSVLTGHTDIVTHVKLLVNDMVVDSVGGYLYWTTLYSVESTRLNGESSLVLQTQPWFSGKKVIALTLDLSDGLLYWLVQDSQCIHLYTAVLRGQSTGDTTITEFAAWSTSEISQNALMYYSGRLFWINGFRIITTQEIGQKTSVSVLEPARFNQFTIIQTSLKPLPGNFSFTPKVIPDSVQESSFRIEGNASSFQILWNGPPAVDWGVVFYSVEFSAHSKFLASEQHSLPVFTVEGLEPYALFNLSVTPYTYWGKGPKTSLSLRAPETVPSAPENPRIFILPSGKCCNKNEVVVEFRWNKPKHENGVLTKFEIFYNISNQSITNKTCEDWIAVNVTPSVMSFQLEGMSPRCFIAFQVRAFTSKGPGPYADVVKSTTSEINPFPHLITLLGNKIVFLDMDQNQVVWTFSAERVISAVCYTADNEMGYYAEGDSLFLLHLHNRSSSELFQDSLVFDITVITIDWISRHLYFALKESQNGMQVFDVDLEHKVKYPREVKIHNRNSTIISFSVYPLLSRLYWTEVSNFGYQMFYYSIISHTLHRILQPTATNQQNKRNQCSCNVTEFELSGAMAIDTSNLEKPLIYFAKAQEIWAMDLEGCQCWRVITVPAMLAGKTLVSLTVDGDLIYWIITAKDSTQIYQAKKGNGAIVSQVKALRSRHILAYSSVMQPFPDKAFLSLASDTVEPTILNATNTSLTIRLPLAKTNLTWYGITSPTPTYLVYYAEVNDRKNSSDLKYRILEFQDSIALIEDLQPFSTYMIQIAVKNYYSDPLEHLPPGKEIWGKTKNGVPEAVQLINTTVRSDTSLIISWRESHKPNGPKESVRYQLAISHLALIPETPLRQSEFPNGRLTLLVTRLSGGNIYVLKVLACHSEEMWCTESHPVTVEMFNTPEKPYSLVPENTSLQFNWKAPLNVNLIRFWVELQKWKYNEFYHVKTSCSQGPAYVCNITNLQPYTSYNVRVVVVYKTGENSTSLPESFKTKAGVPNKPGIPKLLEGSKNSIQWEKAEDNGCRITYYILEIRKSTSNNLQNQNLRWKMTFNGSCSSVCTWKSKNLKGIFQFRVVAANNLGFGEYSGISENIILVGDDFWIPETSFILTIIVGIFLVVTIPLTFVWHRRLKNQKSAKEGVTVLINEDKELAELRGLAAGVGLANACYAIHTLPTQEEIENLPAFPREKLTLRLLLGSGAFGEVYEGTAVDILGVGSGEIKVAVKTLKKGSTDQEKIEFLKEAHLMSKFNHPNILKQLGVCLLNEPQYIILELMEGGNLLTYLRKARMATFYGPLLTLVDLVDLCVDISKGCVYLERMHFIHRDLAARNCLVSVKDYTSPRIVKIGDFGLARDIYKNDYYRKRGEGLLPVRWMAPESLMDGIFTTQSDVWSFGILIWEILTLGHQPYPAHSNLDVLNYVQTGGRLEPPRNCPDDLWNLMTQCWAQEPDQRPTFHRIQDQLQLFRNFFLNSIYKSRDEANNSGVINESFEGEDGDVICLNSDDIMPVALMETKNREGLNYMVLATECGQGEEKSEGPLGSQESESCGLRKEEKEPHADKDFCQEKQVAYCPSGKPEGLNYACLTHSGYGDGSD

G2032R ROS1 = G2032R ROS1 (Homo sapiens, UniProt P08922, G2032R); assay: Inhibition of G2032R ROS1 kinase, CisBio HTRF KinEASE-TK assay
Method: as §1

L2026M ROS1 = L2026M ROS1 (Homo sapiens, UniProt P08922, L2026M); assay: Inhibition of L2026M ROS1 kinase, CisBio HTRF KinEASE-TK assay
Method: as §1

D2033N ROS1 = D2033N ROS1 (Homo sapiens, UniProt P08922, D2033N); assay: Inhibition of D2033N ROS1 kinase, CisBio HTRF KinEASE-TK assay
Method: as §1

C[C@@H]1CCc2ncc(F)cc2[C@H]2CCCN2c2ccn3ncc(c3n2)C(=O)N1 [Compound 33-B, (6R,15R)-9-fluoro-15-methyl-2,11,16,20,21,24-hexaazapentacyclo[16.5.2.0^2,6.0^7,12.0^21,25] pentacosa-1(24),7,9,11,18(25),19,22-heptaen-17-one]
IC50 (wild type ROS1): 2.7 nM
IC50 (G2032R ROS1): 20.4 nM
IC50 (L2026M ROS1): 3.6 nM
IC50 (D2033N ROS1): 0.5 nM

From patent publication US20190076436A1, “MACROCYCLIC COMPOUNDS AS ROS1 KINASE INHIBITORS” (Array BioPharma Inc., priority 2017, published 2019)
